## Yeast mating assay 2: variants of the scFv Ab-95

Data: MIT Lincoln Laboratory AlphaSeq set, Engelhart et al. 2022, doi:10.1038/s41597-022-01779-4, as distributed in FLAb.

Target: peptide PDVDLGDISGINAS, taken from heptad repeat 2 (HR2) of SARS-CoV-2 spike.

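In library AAYL52, one, two or three CDR residues were substituted; doubles and triples were drawn at random. In AlphaSeq, yeast of one mating type display the scFv and yeast of the other type display the target. Mating (16 h, 30 °C) was followed by selection of diploids and sequencing of their barcodes. The ratio of observed to expected reads was calibrated, replicate by replicate, on BCL2-family standards whose Kd was known from biolayer interferometry. The assay was run in three technical replicates.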

Parent scFv Ab-95: VH joined to VL by a 15-residue (Gly4Ser)3 linker. Changes lie in the light chain CDRs alone.
VH: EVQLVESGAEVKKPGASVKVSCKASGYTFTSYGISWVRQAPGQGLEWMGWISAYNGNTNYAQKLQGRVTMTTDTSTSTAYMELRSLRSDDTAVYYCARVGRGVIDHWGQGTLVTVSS
VL: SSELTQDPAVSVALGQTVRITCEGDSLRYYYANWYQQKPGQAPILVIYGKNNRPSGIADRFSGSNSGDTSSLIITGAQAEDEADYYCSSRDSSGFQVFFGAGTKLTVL

Each variant is given by its three light chain CDRs, as the data file delimits them; those of the parent are EGDSLRYYYAN, GKNNRPS, SSRDSSGFQVF. The read-out is the apparent dissociation constant on a log10 scale (nM): the lower, the stronger. An entry "ND" has no value in the source: the pair was not observed among the diploids in that replicate. This suggests poor binding but is not conclusive. Nonspecific signal, from three strains lacking the peptide, appeared in 28% of pairings of library AAYL52, centred on 3.91 (5% of these signals below 2.90); values are not corrected for it. For each scFv, signals with the empty controls are counted beside the result, with their mean in brackets. In this assay the parent's reference entry averaged 2.31; its copy inside this library read 2.25.

| # | CDR-L1 | CDR-L2 | CDR-L3 | log10 Kd, replicates | signal with controls |
|---|---|---|---|---|---|
| 1 | DGDSLRYYYPN | GKNNRPS | SSRDSSGFQVA | 2.63 / 2.49 / 3.08 | 4 of 9 (3.74) |
| 2 | QGDSLEYYYAN | GKNNRPS | SARDSSGFQVF | 1.93 / 1.59 / 1.58 | 3 of 9 (4.65) |
| 3 | EGDSLRYYYAL | GPNNRPS | SSRDSSGFGVF | 4.72 / ND / ND | 3 of 9 (3.89) |
| 4 | EGDSLRMYYAN | GKINRPS | SVRDSSGFQVF | 3.47 / 4.06 / ND | 4 of 9 (3.74) |
| 5 | EGDSYRYYYAN | GKNNRPN | SSRDSSGFQLF | ND / ND / ND | 2 of 9 (4.07) |
| 6 | EGTSLRYYYAN | GKNNRPS | NSRDRSGFQVF | 2.15 / 1.77 / 2.09 | 0 of 9 |
| 7 | EGSSLRYYYAN | EKNNRPS | SSRDSSGFQDF | ND / ND / ND | 4 of 9 (3.93) |
| 8 | EGDSLRYYYAN | GSNWRPS | SMRDSSGFQVF | 4.93 / 4.44 / 3.79 | 5 of 9 (3.94) |
| 9 | EGDHLRYYYAN | IKNNRPS | SSRDSCGFQVF | ND / ND / ND | 1 of 9 (3.79) |
| 10 | ENDSLRRYYAQ | GKNNRPS | SSRDSSGFQVF | ND / 5.28 / ND | 2 of 9 (3.46) |
| 11 | EGISLRHYYWN | GKNNRPS | SSRDSSGFQVF | ND / 4.04 / ND | 1 of 9 (3.01) |
| 12 | EVDSLRYYYAN | VKNNNPS | SSRDSSGFQVF | 4.19 / 5.64 / ND | 4 of 9 (3.82) |
| 13 | EGDSLRYYYAN | GKTNRPS | SSRDSSMFQVF | ND / 4.34 / 4.22 | 2 of 9 (3.68) |
| 14 | EGDSLRYYLAN | GKNNRPV | SSRDSCGFQVF | 3.46 / 3.16 / 4.35 | 6 of 9 (4.29) |
| 15 | EGDSLRYYYAN | GKSNRPS | SSRCISGFQVF | ND / ND / ND | 2 of 9 (4.63) |
| 16 | EGDSLRYYIAN | GKNNRPG | SSRDCSGFQVF | 3.02 / 2.76 / 2.17 | 4 of 9 (3.42) |
| 17 | EGDVLEYYYAN | GKNNRPS | SSRDRSGFQVF | 3.50 / 3.66 / 2.82 | 4 of 9 (3.92) |
| 18 | EGDSLRSYEMN | GKNNRPS | SSRDSSGFQVF | 1.55 / 1.43 / 0.85 | 1 of 9 (2.91) |
| 19 | EGDSLRYYYAN | GLNNAPS | SSRDSSGFQVF | 3.36 / 3.83 / 4.19 | 3 of 9 (3.53) |
| 20 | WGDSLRYYYAN | GKENRPS | SSRDSSGVQVF | 2.95 / 2.95 / ND | 0 of 9 |
| 21 | EGDSLRYYYAN | GRNNRPS | SSRDSSGFAVF | 3.03 / 2.80 / 2.70 | 2 of 9 (4.30) |
| 22 | EGDSLRYYYNN | GKNNIPS | DSRDSSGFQVF | ND / ND / ND | 0 of 9 |
| 23 | EGDSLRYYYAN | GKNNRPS | SSRDSSGFEVC | 3.13 / 4.20 / 3.71 | 3 of 9 (3.69) |
| 24 | EGDSLRYYEAN | GKNNRIS | SSRGSSGFQVF | 2.45 / 2.13 / 2.42 | 1 of 9 (4.03) |
| 25 | EGDSLRYYYAN | GKNNRPS | SSRDFLKFQVF | 2.33 / 1.72 / 1.49 | 1 of 9 (3.94) |
| 26 | EGDSLRHYYAN | GKNNRPS | VSEDSSGFQVF | 2.51 / 2.06 / 2.13 | 2 of 9 (4.66) |
| 27 | EGDSLRYYYAN | GKNNRPS | SSRKDSWFQVF | 2.43 / 2.79 / 1.99 | 4 of 9 (3.91) |
| 28 | EGDSLRYYYAN | GKNNRPL | SSFDSSGFQVT | 5.16 / 5.47 / ND | 2 of 9 (3.56) |
| 29 | EGDSLRYYYAN | GKNNRPS | SSRDSWGMKVF | 2.37 / 2.54 / 2.18 | 3 of 9 (3.98) |
| 30 | ELDSKRYYYAN | GKNNRPS | SSRDSSGFQVF | 3.54 / ND / 2.82 | 3 of 9 (3.68) |

For reference, 3 entries of the list once more:

CDR-L1,CDR-L2,CDR-L3,"log10 Kd, replicates",signal with controls
EGDSLRHYYAN,GKNNRPS,VSEDSSGFQVF,2.51 / 2.06 / 2.13,2 of 9 (4.66)
EGDSLRYYYAN,GRNNRPS,SSRDSSGFAVF,3.03 / 2.80 / 2.70,2 of 9 (4.30)
EGDHLRYYYAN,IKNNRPS,SSRDSCGFQVF,ND / ND / ND,1 of 9 (3.79)